Source: patent USRE49825E1, “Piperidinyl nociceptin receptor compounds” (Astraea Therapeutics, LLC, priority 2015, dated 2024)

By UniProt entry, the sequences of proteins in these tests, tags left out.
UniProt P41146, whole entry: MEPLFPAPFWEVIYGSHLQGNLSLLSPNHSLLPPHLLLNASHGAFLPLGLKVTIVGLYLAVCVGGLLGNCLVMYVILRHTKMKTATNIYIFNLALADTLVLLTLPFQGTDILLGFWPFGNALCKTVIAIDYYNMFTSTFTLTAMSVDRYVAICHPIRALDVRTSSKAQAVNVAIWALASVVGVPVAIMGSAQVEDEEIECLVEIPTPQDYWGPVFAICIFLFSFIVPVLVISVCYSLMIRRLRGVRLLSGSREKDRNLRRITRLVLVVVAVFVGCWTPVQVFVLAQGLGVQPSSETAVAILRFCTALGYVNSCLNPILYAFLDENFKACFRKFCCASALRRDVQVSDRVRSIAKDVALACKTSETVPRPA
UniProt P35372, whole entry: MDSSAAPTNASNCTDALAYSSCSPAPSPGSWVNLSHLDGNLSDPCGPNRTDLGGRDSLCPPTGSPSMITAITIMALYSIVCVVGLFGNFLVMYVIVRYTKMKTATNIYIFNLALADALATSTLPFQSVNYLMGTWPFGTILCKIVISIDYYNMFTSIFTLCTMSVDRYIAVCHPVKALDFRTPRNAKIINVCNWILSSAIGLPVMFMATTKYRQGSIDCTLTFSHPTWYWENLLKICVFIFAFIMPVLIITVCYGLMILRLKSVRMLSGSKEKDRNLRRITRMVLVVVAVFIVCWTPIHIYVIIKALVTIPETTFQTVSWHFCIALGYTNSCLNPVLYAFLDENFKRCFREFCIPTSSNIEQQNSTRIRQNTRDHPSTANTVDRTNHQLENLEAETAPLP
UniProt P41145, whole entry: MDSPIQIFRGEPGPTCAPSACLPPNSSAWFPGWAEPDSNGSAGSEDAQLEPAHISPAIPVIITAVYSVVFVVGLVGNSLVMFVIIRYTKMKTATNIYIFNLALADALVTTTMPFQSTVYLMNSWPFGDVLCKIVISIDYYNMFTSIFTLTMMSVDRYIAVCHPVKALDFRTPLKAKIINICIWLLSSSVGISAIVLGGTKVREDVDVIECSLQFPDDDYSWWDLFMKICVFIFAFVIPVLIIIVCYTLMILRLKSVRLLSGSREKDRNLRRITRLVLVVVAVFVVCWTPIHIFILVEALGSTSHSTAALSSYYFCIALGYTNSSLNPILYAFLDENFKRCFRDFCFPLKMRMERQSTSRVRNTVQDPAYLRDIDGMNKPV

Columns and labels:
[1] = biological target: nociceptin (NOP) receptor (Homo sapiens, UniProt P41146); assay: Radioligand binding assay, [3H]N/OFQ, membranes of CHO cells transfected with human NOP receptor
[2] = biological target: mu opioid receptor (Homo sapiens, UniProt P35372); assay: Radioligand binding assay, [3H]DAMGO, membranes of CHO cells transfected with human mu opioid receptor
[3] = biological target: kappa opioid receptor (Homo sapiens, UniProt P41145); assay: Radioligand binding assay, [3H]U69593, membranes of CHO cells transfected with human kappa opioid receptor
[4] = read-out: Receptor Binding Ki (nM) NOP, Compounds of Formula (III), CHO cell membranes
[5] = read-out: Receptor Binding Ki (nM) μ, Compounds of Formula (III), CHO cell membranes
[6] = read-out: Receptor Binding Ki (nM) κ, Compounds of Formula (III), CHO cell membranes

Row | Compound | Ki [1, 4] [nM] | Ki [2, 5] [nM] | Ki [3, 6] [nM] | Ki ([1]; read-out: Receptor Binding Ki (nM) NOP, Compounds of Formula (II), CHO cell membranes) [nM] | Ki ([2]; read-out: Receptor Binding Ki (nM) μ, Compounds of Formula (II), CHO cell membranes) [nM] | Ki ([3]; read-out: Receptor Binding Ki (nM) κ, Compounds of Formula (II), CHO cell membranes) [nM]
1 | CC(C)[C@H]1CC[C@@H](N2CCC(N3C(=O)C(CC4CCOC4)c4ccccc43)CC2)CC1 (stereo partly drawn) | < 15 | 15 to 150 | 15 to 150 | – | – | –
2 | CC(C)[C@H]1CC[C@@H](N2CCC(N3C(=O)C(CC(N)=O)c4ccccc43)CC2)CC1 (stereo partly drawn) | < 15 | < 15 | 150 to 5000 | – | – | –
3 | CC(C)[C@H]1CC[C@@H](N2CCC(N3C(=O)C(CCO)c4ccccc43)CC2)CC1 (stereo partly drawn) | < 15 | < 15 | 150 to 5000 | – | – | –
4 | CC(C)[C@H]1CC[C@@H](N2CCC(N3C(=O)/C(=C\C(N)=O)c4ccccc43)CC2)CC1 | < 15 | 15 to 150 | 15 to 150 | – | – | –
5 | CC(C)[C@H]1CC[C@@H](N2CCC(N3C(=O)C(CC4CCNC4)c4ccccc43)CC2)CC1 (stereo partly drawn) | < 15 | < 15 | 15 to 150 | – | – | –
6 | CCOC(=O)NC1C(=O)N(C2CCN([C@H]3CC[C@@H](C(C)C)CC3)CC2)c2ccccc21 (stereo partly drawn) | < 15 | < 15 | 15 to 150 | – | – | –
7 | CC(C)[C@H]1CC[C@@H](N2CCC(N3C(=O)C(CC(=O)NO)c4ccccc43)CC2)CC1 (stereo partly drawn) | < 15 | 15 to 150 | 150 to 5000 | – | – | –
8 | CNNC(=O)CC1C(=O)N(C2CCN([C@H]3CC[C@@H](C(C)C)CC3)CC2)c2ccccc21 (stereo partly drawn) | < 15 | 15 to 150 | 150 to 5000 | – | – | –
9 | CC(C)[C@H]1CC[C@@H](N2CCC(N3C(=O)C(CC(=O)NCCC(N)=O)c4ccccc43)CC2)CC1 (stereo partly drawn) | 15 to 150 | 15 to 150 | > 5000 | – | – | –
10 | CC(C)[C@H]1CC[C@@H](N2CCC(N3C(=O)/C(=C\C#N)c4ccccc43)CC2)CC1 | < 15 | 15 to 150 | 15 to 150 | – | – | –
11 | CC(C)OC(=O)CC1C(=O)N(C2CCN([C@H]3CC[C@@H](C(C)C)CC3)CC2)c2ccccc21 (stereo partly drawn) | 15 to 150 | 15 to 150 | 150 to 5000 | – | – | –
12 | CC(C)[C@H]1CC[C@@H](N2CCC(N3C(=O)/C(=C\C(=O)CCC(N)=O)c4ccccc43)CC2)CC1 | < 15 | 15 to 150 | 150 to 5000 | – | – | –
13 | CC(C)[C@H]1CC[C@@H](N2CCC(N3C(=O)C(CCNC(=O)[C@@H](N)CCCNC(=N)N)c4ccccc43)CC2)CC1 (stereo partly drawn) | < 15 | < 15 | 150 to 5000 | – | – | –
14 | CONC(=O)CC1C(=O)N(C2CCN([C@H]3CC[C@@H](C(C)C)CC3)CC2)c2ccccc21 (stereo partly drawn) | < 15 | 15 to 150 | 150 to 5000 | – | – | –
15 | COC(=O)CC1C(=O)N(C2CCN([C@H]3CC[C@@H](C(C)C)CC3)CC2)c2ccccc21 (stereo partly drawn) | < 15 | < 15 | < 15 | – | – | –
16 | CC(C)[C@H]1CC[C@@H](N2CCC(N3C(=O)/C(=N\O)c4ccccc43)CC2)CC1 | < 15 | 15 to 150 | 15 to 150 | – | – | –
17 | CCOC(=O)CC1C(=O)N(C2CCN([C@H]3CC[C@@H](C(C)C)CC3)CC2)c2ccccc21 (stereo partly drawn) | < 15 | 15 to 150 | 15 to 150 | – | – | –
18 | CC(=O)NC1C(=O)N(C2CCN([C@H]3CC[C@@H](C(C)C)CC3)CC2)c2ccccc21 (stereo partly drawn) | < 15 | 15 to 150 | 150 to 5000 | – | – | –
19 | CC(C)[C@H]1CC[C@@H](N2CCC(N3C(=O)C(CC#N)c4ccccc43)CC2)CC1 (stereo partly drawn) | < 15 | < 15 | 150 to 5000 | – | – | –
20 | CO/N=C1\C(=O)N(C2CCN([C@H]3CC[C@@H](C(C)C)CC3)CC2)c2ccccc21 | < 15 | 15 to 150 | 150 to 5000 | – | – | –
21 | CC(C)[C@H]1CC[C@@H](N2CCC(N3C(=O)/C(=N\OCCCON)c4ccccc43)CC2)CC1 | 150 to 5000 | 15 to 150 | 15 to 150 | – | – | –
22 | CC(=O)N/N=C1\C(=O)N(C2CCN([C@H]3CC[C@@H](C(C)C)CC3)CC2)c2ccccc21 | 15 to 150 | 15 to 150 | 15 to 150 | – | – | –
23 | OCc1cc2ccccc2n1C1CCN([C@@H]2CC[C@@H]3CCCc4cccc2c43)CC1 | – | – | – | < 15 | 15 to 150 | 150 to 5000
24 | CONC(=O)CC1C(=O)N(C2CCN(C3CCC(C)(C)CC3)CC2)c2ccccc21 (stereo not drawn) | 15 to 150 | < 15 | 150 to 5000 | – | – | –
25 | CC(=O)NNC(=O)CC1C(=O)N(C2CCN([C@H]3CC[C@@H](C(C)C)CC3)CC2)c2ccccc21 (stereo partly drawn) | < 15 | 15 to 150 | 15 to 150 | – | – | –
26 | CC(C)[C@H]1CC[C@@H](N2CCC(N3C(=O)C(CC(=O)NOCc4ccccc4)c4ccccc43)CC2)CC1 (stereo partly drawn) | < 15 | 15 to 150 | 15 to 150 | – | – | –
27 | CC(=O)NCCC1C(=O)N(C2CCN([C@H]3CC[C@@H](C(C)C)CC3)CC2)c2ccccc21 (stereo partly drawn) | < 15 | 15 to 150 | 150 to 5000 | – | – | –

Read-outs that look alike come from different tables or passages of the source.
